Assay results taken from article PMC6769930, “Endoglin Protein Interactome Profiling Identifies TRIM21 and Galectin-3 as New Binding Partners” (Cells, 2019).
Blank lines part the entries; values can stand above or below the binder they belong to.

Columns and labels:
[1] = molecular target: T1, recombinant human soluble endoglin (sEng; Glu26-Gly586) (human, UniProt P17813 26-586); test: peptide or protein array; ProtoArray human protein Microarray v5.0 (over 9000 human proteins arrayed) probed with recombinant sEng in two replicates; detection with anti-endoglin mAb SN6h and HRP secondary antibody; hits with Z-score >=2.0 in both arrays; settings: both partners purified
T1 construct: human endoglin (CD105), extracellular domain, Glu26-Gly586; The same bought protein was the probe of the array and the analyte of the BLI; also called recombinant human endoglin/CD105 protein; source: bought: R&D Systems (1097-EN), purified recombinant
T1 sequence (looked up): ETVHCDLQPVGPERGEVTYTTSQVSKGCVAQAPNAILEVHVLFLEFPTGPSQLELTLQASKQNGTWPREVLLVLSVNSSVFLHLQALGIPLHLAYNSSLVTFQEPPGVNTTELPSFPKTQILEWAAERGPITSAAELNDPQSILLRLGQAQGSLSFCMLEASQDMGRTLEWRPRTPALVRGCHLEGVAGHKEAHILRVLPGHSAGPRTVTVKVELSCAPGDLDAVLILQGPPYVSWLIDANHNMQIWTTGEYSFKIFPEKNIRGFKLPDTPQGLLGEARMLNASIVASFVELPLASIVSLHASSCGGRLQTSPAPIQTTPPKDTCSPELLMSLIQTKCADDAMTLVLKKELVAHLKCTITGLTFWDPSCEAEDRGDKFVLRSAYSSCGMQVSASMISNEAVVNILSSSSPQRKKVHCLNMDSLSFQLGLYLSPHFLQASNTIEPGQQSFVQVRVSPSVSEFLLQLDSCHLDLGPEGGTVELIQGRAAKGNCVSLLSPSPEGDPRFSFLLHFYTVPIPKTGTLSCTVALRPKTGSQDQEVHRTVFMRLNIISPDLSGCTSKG

[2] = molecular target: T1, recombinant human soluble endoglin …; test: BLI; BLItz; TRIM21 with N-terminal 6xHis (5.4 µM) loaded on Ni-NTA biosensor tips; 4.1 µM sEng or 0.1% BSA in PBS (negative control); 300 s association, 300 s dissociation; settings: both partners purified

binding result [1]: binds
B1: Tripartite motif-containing 21 (TRIM21) (arrayed on the ProtoArray) (natural protein, human, UniProt P19474-1 1-475, looked up)
chain: MASAARLTMMWEEVTCPICLDPFVEPVSIECGHSFCQECISQVGKGGGSVCPVCRQRFLLKNLRPNRQLANMVNNLKEISQEAREGTQGERCAVHGERLHLFCEKDGKALCWVCAQSRKHRDHAMVPLEEAAQEYQEKLQVALGELRRKQELAEKLEVEIAIKRADWKKTVETQKSRIHAEFVQQKNFLVEEEQRQLQELEKDEREQLRILGEKEAKLAQQSQALQELISELDRRCHSSALELLQEVIIVLERSESWNLKDLDITSPELRSVCHVPGLKKMLRTCAVHITLDPDTANPWLILSEDRRQVRLGDTQQSIPGNEERFDSYPMVLGAQHFHSGKHYWEVDVTGKEAWDLGVCRDSVRRKGHFLLSSKSGFWTIWLWNKQKYEAGTYPQTPLHLQVPPCQVGIFLDYEAGMVSFYNITDHGSLIYSFSECAFTGPLRPFFSPGFNDGGKNTAPLTLCPLNIGSQGSTDY
notes: human TRIM21, E3 ubiquitin-protein ligase; source: bought: ProtoArray human protein Microarray v5.0 (Life Technologies), individually purified and arrayed

binding result [2]: binds
B2: human full-length TRIM21 protein (RO52; 6His-tag, N-terminus, LSBio) (enzyme, UniProt P19474 1-475, looked up)
chain: B1 chain
notes: human TRIM21 (RO52), full-length; No catalogue number is printed; also called TRIM21/6xHis at the N-terminus; R052; source: bought: LSBio; not shown: His6, N-terminal, kept
